Assay results: US20240309014A1, “MACROCYCLIC COMPOUNDS AND USES THEREOF” (President and Fellows of Harvard College, priority 2017, published 2024)

Tests used:
Format in all cases: in vivo, nude mice
[1] = system: KPL-4 subcutaneous xenograft; assay: KPL-4 subcutaneous xenograft model in combination with trastuzumab; settings: trastuzumab 10 mg/kg alone
Protocol: A human HER-2 positive breast cancer cell line KPL-4, which had been cultured in an RPMI-1640 medium containing 10% FBS, and penicillin and streptomycin, was adjusted to a concentration of 1×10^8 cells/mL with Hank's Balanced Salt Solution to prepare a cell suspension. The cell suspension was inoculated in a volume of 100 μL into a subcutaneous part of a right flank of nude mice, 7 weeks of ages (CAnN.Cg-Foxnlnu/CrlCrlj, female, Charles River Laboratories Japan, Inc.). Sixteen days after the cell inoculation, the shortest diameter and the longest diameter of a tumor in each mouse were measured by using an electronic digital caliper (Digimatic™ caliper, Mitutoyo Corporation), so as to calculate the volume of the tumor in accordance with the following calculation formulae: […]
On the basis of the volumes of tumors obtained on the first day of administration, the mice were grouped such that averages of the tumor volumes were substantially equal among the groups. The experiment was conducted on groups each consisting of 6 mice. Each test compound was dissolved in DMSO and a solution was stored at the freezer before use. Immediately before the administration, the stock solution was diluted in saline. The test compound was intravenously administered at 0.09 mg/kg or 0.18 mg/kg in combination with trastuzumab (Herceptin, Genentech, Inc.).

[2] = system: FaDu subcutaneous xenograft; assay: FaDu subcutaneous xenograft model in combination with cetuximab; settings: cetuximab 20 mg/kg alone
Text: A human squamous cell carcinoma of the head and neck (SCCHN) cell line FaDu, which had been cultured in an RPMI-1640 medium containing 10% FBS, and penicillin and streptomycin, was adjusted to a concentration of 5×10^7 cells/mL with Hanks' Balanced Salt Solution to prepare a cell suspension. The cell suspension was inoculated in a volume of […] into a subcutaneous part of a right flank of nude mice, 7 weeks of ages (CAnN.Cg-Foxnlnu/CrlCrlj, female, Charles River Laboratories Japan Inc.). Ten days after cell inoculation, the shortest diameter and the longest diameter of a tumor in each mouse were measured by using an electronic digital caliper (Digimatic™ caliper, Mitutoyo Corporation), so as to calculate the volume of the tumor in accordance with the following calculation formulae: […]
On the basis of the volumes of tumors obtained on the first day of administration, the mice were grouped such that averages of the tumor volumes were substantially equal among the groups. Each test compound was dissolved in DMSO and a solution was stored at the freezer before use. Immediately before the administration, the stock solution was diluted in saline with 100 μM of hydroxypropyl-β-cyclodextrin. Each test compound and was intravenously administered at doses from ¼ MTD to ½ MTD in combination with cetuximab (Erbitux, Merck Serono Co., Ltd.). […]

[3] = system: HSC-2-Luc inoculated into tongue; assay: HSC-2 orthotopic transplantation mouse model; settings: single agent, Q7Dx3: cetuximab 5 mg/kg, cisplatin 5 mg/kg, Compound (1) 0.09 mg/kg

Substance | Tumor Regression (%) [1] [%] | Tumor Regression on day 35 (%) [2] [%] | ILS (%) [3] [%]
trastuzumab [reference compound] | 0 |  | 
cetuximab [reference compound] |  | −242 | 231
